Measurements published in PubChem BioAssay AID2797 (The Scripps Research Institute Molecular Screening Center, 2010).
This is a selection; strong and weak results do not stand in their true shares. Active and inactive are the calls of the source.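 Rule for the calls: active = activation above the mean activation of all tested compounds plus 3 SD, per screening run (cut at about 20% in these data); inactive = the rest.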

Sequences of proteins named here, by UniProt entry; tags and fusion partners are left off.
UniProt P37288, whole entry: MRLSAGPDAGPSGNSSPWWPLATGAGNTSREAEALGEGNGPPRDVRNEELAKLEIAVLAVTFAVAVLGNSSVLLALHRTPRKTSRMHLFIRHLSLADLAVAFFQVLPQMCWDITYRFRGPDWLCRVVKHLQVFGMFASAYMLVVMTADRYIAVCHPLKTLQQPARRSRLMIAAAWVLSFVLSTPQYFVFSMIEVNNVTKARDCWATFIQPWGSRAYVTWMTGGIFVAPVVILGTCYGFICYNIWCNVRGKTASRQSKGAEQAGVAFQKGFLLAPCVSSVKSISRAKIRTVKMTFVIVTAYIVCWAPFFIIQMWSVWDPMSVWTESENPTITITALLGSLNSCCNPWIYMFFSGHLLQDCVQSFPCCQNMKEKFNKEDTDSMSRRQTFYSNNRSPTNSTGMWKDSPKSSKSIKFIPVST

Molecular target: Vasopressin V1a receptor (Homo sapiens) (UniProt P37288)
Assay: agonists of human V1a receptor, primary screen, counter-screen for OXTR agonist project, fluorescence, CHO-V1R cells (AID 2797);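 note: signal is peak over basal fluorescence ratio across a 100 second FLIPR read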
Settings: Fluo-8 calcium fluorescence, agonist mode, at 3 µM, hits give high values, 0% DMSO, 100% 3 nM vasopressin

Structure (SMILES) | activation
CCC(=O)N(c1ccccc1)C1(COC)CCN(CCn2nnn(CC)c2=O)CC1 | inactive: 0.22%
CCC(=O)N(c1ccccc1)C1(COC)CCN(CCc2cccs2)CC1 | inactive: -0.42%
